Results on 27 compounds are retold here after PubChem BioAssay AID651965 (National Center for Advancing Translational Sciences (NCATS), 2013).

By UniProt entry, the sequences of proteins in these tests, tags left out.
UniProt P80244, whole entry: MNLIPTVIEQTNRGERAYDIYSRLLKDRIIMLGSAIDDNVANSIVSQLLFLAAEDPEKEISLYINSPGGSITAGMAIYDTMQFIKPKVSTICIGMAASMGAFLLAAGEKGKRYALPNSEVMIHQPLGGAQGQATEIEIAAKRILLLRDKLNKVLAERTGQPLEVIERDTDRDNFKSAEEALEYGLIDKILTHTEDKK

Several values for one entry are separate records, joined by “and”; a condition that tells them apart may be missing. Identical values can stand only once. This is a selection; strong and weak results do not stand in their true shares. Some tests of the compounds listed are not included; inactive here does not mean inactive elsewhere. Results filed as inconclusive are left out. Activity calls are given as the source filed them. Calls come from the whole dose curve; as a rule, active = well fitted falling curve with a large enough effect; inconclusive = small, poorly fitted or top-dose-only effect; inactive = no such curve, though single readings can be large or run the other way.

For this experiment, the target named is ATP-dependent Clp protease proteolytic subunit (Bacillus subtilis (strain 168)) (UniProt P80244). As to the kind of experiment: qHTS Assay for Activators of ClpP. Note: the source files actives as falling curves though it sought activators and does not explain the sign; nearly all actives have a fitted effect of over 65% in size. Particulars: purified B. subtilis ClpP, FRET peptide cleavage, 20 min; at 57.5 µM (top of the series). (In qHTS, concentration-response curves come from the screen itself.)
In the case of `CN(C)C1(CNC(=O)c2ccccc2F)CCCCC1`, the activity change, negative = active is inactive: 1.14%.

`CC(C)N1C(=O)CC2(CCN(CCOC(=O)C(O)(c3ccccc3)c3ccccc3)CC2)C1=O`: the activity change, negative = active was inactive: 3.33%.

With `CN(C)C1(CNC(=O)c2cccc(Cl)c2)CCCCC1`, the activity change, negative = active was inactive: 0.753%.

As for `COc1cc(SC)ccc1C(=O)NCC1(N(C)C)CCCCC1`, the activity change, negative = active is inactive: -0.786%.

Consider `CN1[C@@H]2CC[C@H]1CC(OC(=O)C(O)(c1ccccc1)c1ccccc1)C2` (some centres not stated), for which the activity change, negative = active is inactive: 0.799%.

`COc1ccc(C(=O)NCC2(N(C)C)CCCCC2)cc1`: the activity change, negative = active was inactive: 0.208%.

Turning to `CCOc1cccc(C(=O)NCC2(N(C)C)CCCCC2)c1`, the activity change, negative = active was inactive: -1.76%.

Take `C=CCN1CCN(CCOC(=O)C(O)(c2ccccc2)c2ccccc2)CC1`: the activity change, negative = active is inactive: 2.25%.

As for `O=C(NCC1(N2CCCCC2)CCCCC1)c1cc(F)c(F)cc1Cl`, the activity change, negative = active was inactive: -0.135%.

Consider `CCCCOc1ccccc1C(=O)NCC1(N(C)C)CCCCC1`, for which the activity change, negative = active is inactive: -2.07%.

For `CN(C)C1(CNC(=O)c2ccccc2[N+](=O)[O-])CCCCC1`, the activity change, negative = active is inactive: -4.62%.

For the compound `Cc1ccccc1C(=O)NCC1(N2CCCCC2)CCCCC1`, the activity change, negative = active was inactive: -1.52%.

With `CN(C)C1CCCC1OC(=O)C(O)(c1ccccc1)c1ccccc1` (configuration not stated), the activity change, negative = active was inactive: -3.54%.

Consider `CN(C)c1ccc(C(=O)NCC2(N(C)C)CCCCC2)cc1`, for which the activity change, negative = active is inactive: -6.03%.

As to `COc1ccc(C(=O)NCC2(N(C)C)CCCCC2)cc1Cl`, the activity change, negative = active was inactive: -0.669%.

Regarding `COc1cc(C(=O)NCC2(N(C)C)CCCCC2)c([N+](=O)[O-])cc1OC`, the activity change, negative = active was inactive: 0.13%.

For `O=C(CBr)c1ccc(Cl)cc1`, the activity change, negative = active was inactive: 0.273%.

Take `CN(C)c1cccc(C(=O)NCC2(N(C)C)CCCCC2)c1`: the activity change, negative = active was inactive: 11.3%.

For the compound `CC(C)Oc1ccc(C(=O)NCC2(N(C)C)CCCCC2)cc1`, the activity change, negative = active is inactive: -0.959% and inactive: -26.4%.

Regarding `O=C(OCCN1CCCC1)C(O)(c1ccccc1)c1ccccc1`, the activity change, negative = active is inactive: -3.44%.

In the case of `COc1cc(C(=O)NCC2(N(C)C)CCCCC2)cc(OC)c1OC`, the activity change, negative = active is inactive: -6.62%.

`Cc1cccc(C(=O)NCC2(N(C)C)CCCCC2)c1`: the activity change, negative = active was inactive: 0.326%.

Turning to `COc1ccc(Br)c(C(=O)NCC2(N3CCCCC3)CCCCC2)c1`, the activity change, negative = active is inactive: -3.66%.

Consider `C=C(C)C#CC(O)(C(=O)OC1CCN(C)CC1)c1ccccc1` (configuration not stated), for which the activity change, negative = active is inactive: -1.39%.

Take `CC(C)COc1ccc(C(=O)NCC2(N(C)C)CCCCC2)cc1`: the activity change, negative = active was inactive: 1.04%.

For `O=C(OC1CN2CCC1CC2)C(CO)(c1ccccc1)c1ccccc1` (configuration not stated), the activity change, negative = active is inactive: -2.27%.

For the compound `COc1cccc(C(=O)NCC2(N3CCOCC3)CCCCC2)c1`, the activity change, negative = active was inactive: -2.28%.
